# Tested on: Atlantic salmon (Salmo salar L.)
# Test: Salmon nutrition experiment (bioavailability, arginine retention, growth, safety)
# Settings: in vivo
# Description: The objective of the experiment was to examine the in vivo bioavailability of the above described “β-L-aspartyl-R” dipeptides in fish for the first time and consequently to determine their applicability as a substitute of free amino acids sources in Atlantic salmon (Salmo salar L.) nutrition. Therefore, varying supplementation levels of β-L-aspartyl-L-arginine in contrast to a mixture of free amino acids L-arginine and L-aspartic acid were compared.
# 315 Atlantic salmon (96.33 g±11.47 g; Danish Salmon AS, Hirtshals, DK) were acclimatized for 14 d in the experimental rearing system. The tanks of the system were part of a recirculation system (3.5 m^3 water volume, turnover rate 2 h^−1). The water purification system consisted of a mechanical filter, a moving bed filter, and a protein skimmer. […]
# Samples of all experimental groups were analyzed for arginine retention in the lab of LUFA in Kiel. […] Crude protein content (N×6.25) was determined by the Kjeldahl method, crude lipid content after hydrolysis with hydrochloric acid followed by a petroleum ether extraction using a Soxhlet extraction system, DM after drying at 103° C. until constant weight, and ash content after 4 h incineration at 550° C. in a combustion oven (P300; Nabertherm, Lilienthal, Germany). Furthermore, gross energy was measured in a bomb calorimeter (C 200; IKA, Staufen, Germany). […]
substance,measurement,value
Asp/Arg [reference compound],retention rates compared to the dipeptide form of arginine (slopes of the regression),19.5%
